AlphaSeq binding of Ab-91 heavy chain variants to a spike HR2 peptide

Target: peptide PDVDLGDISGINAS, taken from heptad repeat 2 (HR2) of SARS-CoV-2 spike.

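Library AAYL51 holds single substitutions and randomly drawn double and triple substitutions in the CDRs. AlphaSeq pools MATa yeast showing the antibodies with MATalpha yeast showing the peptide. Mating (16 h, 30 °C) was followed by selection of diploids and sequencing of their barcodes. Scores were corrected for input abundance and mapped to Kd with protein pairs of known affinity run in the same pool. Each pool was mated in three replicate cultures.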

The variants keep the light chain, the linker and the frameworks of Ab-91 (scFv order VL, a 15-residue (Gly4Ser)3 linker, VH).
VL: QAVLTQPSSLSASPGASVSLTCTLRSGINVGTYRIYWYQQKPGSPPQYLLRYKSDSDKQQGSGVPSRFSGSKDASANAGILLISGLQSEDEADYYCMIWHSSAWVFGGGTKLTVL
VH: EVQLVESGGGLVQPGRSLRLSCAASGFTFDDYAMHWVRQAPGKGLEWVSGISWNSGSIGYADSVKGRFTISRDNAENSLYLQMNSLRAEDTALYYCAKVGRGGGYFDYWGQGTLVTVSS

Each variant is given by its three heavy chain CDRs, as the data file delimits them; those of the parent are GFTFDDYAMH, GISWNSGSIGYADSVK, VGRGGGYFDY.
Each Kd is an estimate from the mating assay, the geometric mean of the replicates in which the pair was seen; lower is stronger.
Where no diploid with the target was found in any replicate, the entry reads "not detected": below detection, most likely a poor binder, though not proof of it.
The list is sorted by this average, lowest first, undetected variants last.
Background: pairings of library AAYL51 with three empty control strains gave a value in 21% of cases (median 34 µM, 5th percentile 1.8 µM). Values in that range, when seen in few replicates, are hard to tell from nonspecific mating.
For reference, the parent read 72 nM as the reference entry and 7.5 nM as a member of this library.

{"CDR-H1": "GFTFDDYAMH", "CDR-H2": "GISWNSGSIGYADSVK", "CDR-H3": "VGRGGGYCQY", "Kd": "6.7 nM", "detected": "3 of 3"}
{"CDR-H1": "GFTFDAYAMH", "CDR-H2": "GISWNFGSIGYADSVK", "CDR-H3": "IGRGGGYFDY", "Kd": "2.4 µM", "detected": "3 of 3"}
{"CDR-H1": "GFTFDDYAMH", "CDR-H2": "GISWNSGSIENADSVK", "CDR-H3": "VGRGGGCFDY", "Kd": "15 µM", "detected": "1 of 3"}
{"CDR-H1": "GFTFDDYAMV", "CDR-H2": "GISWNSGSFGYADSVK", "CDR-H3": "VGHGGGYFDY", "Kd": "19 µM", "detected": "1 of 3"}
{"CDR-H1": "GFTFDDYAMH", "CDR-H2": "GISWNSGSIGYADSQK", "CDR-H3": "VGRGGGPFFY", "Kd": "23 µM", "detected": "2 of 3"}
{"CDR-H1": "GFTFDDYADH", "CDR-H2": "RISWNSGSIGYADSGK", "CDR-H3": "VGRGGGYFDY", "Kd": "50 µM", "detected": "3 of 3"}
{"CDR-H1": "GFTFDDYAMH", "CDR-H2": "GISWNKGSIGYADSVK", "CDR-H3": "VGRGGGYADY", "Kd": "69 µM", "detected": "3 of 3"}
{"CDR-H1": "GFTFDDYAMH", "CDR-H2": "GISWNSGSGGYADSVK", "CDR-H3": "VGCGGGYFWY", "Kd": "130 µM", "detected": "3 of 3"}
{"CDR-H1": "GFGFDDYAMH", "CDR-H2": "EISWNSGSIGYADSVK", "CDR-H3": "VGRGGGYFDY", "Kd": "190 µM", "detected": "2 of 3"}
{"CDR-H1": "GFTFDDYAMH", "CDR-H2": "WISWNSGSIVYADSVK", "CDR-H3": "VGRGEGYFDY", "Kd": "240 µM", "detected": "3 of 3"}
{"CDR-H1": "GFTFCDYARH", "CDR-H2": "GISWNSGSIGYADSDK", "CDR-H3": "VGRGGGYFDY", "Kd": "430 µM", "detected": "2 of 3"}
{"CDR-H1": "GFTFDDYADH", "CDR-H2": "GISWNMGSIGYADSVK", "CDR-H3": "VGRGYGYFDY", "Kd": "760 µM", "detected": "1 of 3"}
{"CDR-H1": "GFTFIDYAMH", "CDR-H2": "GISWNSHSIGYADSVK", "CDR-H3": "VGRNGGYFDY", "Kd": "not detected", "detected": "0 of 3"}
{"CDR-H1": "GFTFDDYARH", "CDR-H2": "GISSNSGSIGYADWVK", "CDR-H3": "VGRGGGYFDY", "Kd": "not detected", "detected": "0 of 3"}
{"CDR-H1": "GGTFDDYAMT", "CDR-H2": "GISWNSGSFGYADSVK", "CDR-H3": "VGRGGGYFDY", "Kd": "not detected", "detected": "0 of 3"}
{"CDR-H1": "AFTFDDYAMH", "CDR-H2": "KISWNSGSIGYADSVK", "CDR-H3": "VGRCGGYFDY", "Kd": "not detected", "detected": "0 of 3"}
{"CDR-H1": "GFTFDDYADW", "CDR-H2": "GIFWNSGSIGYADSVK", "CDR-H3": "VGRGGGYFDY", "Kd": "not detected", "detected": "0 of 3"}
{"CDR-H1": "GFTFDDYAMH", "CDR-H2": "MISWNSGSIGYADMVK", "CDR-H3": "VGMGGGYFDY", "Kd": "not detected", "detected": "0 of 3"}

For reference, 2 entries of the list once more:

CDR-H1,CDR-H2,CDR-H3,Kd,detected
GFTFDDYAMH,GISWNSGSGGYADSVK,VGCGGGYFWY,130 µM,3 of 3
GFTFDDYAMH,WISWNSGSIVYADSVK,VGRGEGYFDY,240 µM,3 of 3

The measurements come from Engelhart et al. 2022 (doi:10.1038/s41597-022-01779-4) through the FLAb antibody collection.